We go through 1 substance from patent publication US20110294728A1, “Antiviral Polypeptides” (priority 2008, published 2011).

For the data set the following is noted: 200 μg, 6 hrs after injection.

With “polyinosinic:polycytidylic acid [Poly I:C]”, the “increase of the level of cytokines” value turned out to be 10 fold.
